Measured values reported in patent publication US20020040034A1, “Methods for treating allergic asthma using descarboethoxyloratadine” (priority 1997, published 2002).

The chains behind the UniProt entries cited, without tags or fusion partners.
UniProt P31389, whole entry: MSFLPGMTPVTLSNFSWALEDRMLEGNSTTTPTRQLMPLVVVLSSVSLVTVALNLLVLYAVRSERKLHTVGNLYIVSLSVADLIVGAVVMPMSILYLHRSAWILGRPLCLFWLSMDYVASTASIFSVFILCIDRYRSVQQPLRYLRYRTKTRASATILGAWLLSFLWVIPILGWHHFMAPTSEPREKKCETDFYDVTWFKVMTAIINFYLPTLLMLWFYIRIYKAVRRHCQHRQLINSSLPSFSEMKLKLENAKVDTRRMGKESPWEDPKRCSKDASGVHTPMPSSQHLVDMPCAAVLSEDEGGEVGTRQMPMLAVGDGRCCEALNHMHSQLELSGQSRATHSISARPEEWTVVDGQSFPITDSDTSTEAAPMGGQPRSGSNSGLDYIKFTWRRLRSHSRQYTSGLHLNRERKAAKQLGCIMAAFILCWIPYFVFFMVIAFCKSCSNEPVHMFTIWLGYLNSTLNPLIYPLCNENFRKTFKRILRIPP

Biological target: histamine H-1 receptors (Cavia porcellus, UniProt P31389)
Conditions: Hill coefficient of the binding curve

COc1ccc(CN(CCN(C)C)c2ccccn2)cc1 [Pyrilamine]
Inhibition of Pyrilamine Binding at H-1 Receptor (nH): (0.98)
